# Data taken from patent publication US10251892B2, “Bicyclic heterocycles as FGFR4 inhibitors” (Incyte Corporation, priority 2015, dated 2019).
# Chains of the proteins cited; added tags and fusions are not shown. Residues count along the entry.
# UniProt P22607, 23-806: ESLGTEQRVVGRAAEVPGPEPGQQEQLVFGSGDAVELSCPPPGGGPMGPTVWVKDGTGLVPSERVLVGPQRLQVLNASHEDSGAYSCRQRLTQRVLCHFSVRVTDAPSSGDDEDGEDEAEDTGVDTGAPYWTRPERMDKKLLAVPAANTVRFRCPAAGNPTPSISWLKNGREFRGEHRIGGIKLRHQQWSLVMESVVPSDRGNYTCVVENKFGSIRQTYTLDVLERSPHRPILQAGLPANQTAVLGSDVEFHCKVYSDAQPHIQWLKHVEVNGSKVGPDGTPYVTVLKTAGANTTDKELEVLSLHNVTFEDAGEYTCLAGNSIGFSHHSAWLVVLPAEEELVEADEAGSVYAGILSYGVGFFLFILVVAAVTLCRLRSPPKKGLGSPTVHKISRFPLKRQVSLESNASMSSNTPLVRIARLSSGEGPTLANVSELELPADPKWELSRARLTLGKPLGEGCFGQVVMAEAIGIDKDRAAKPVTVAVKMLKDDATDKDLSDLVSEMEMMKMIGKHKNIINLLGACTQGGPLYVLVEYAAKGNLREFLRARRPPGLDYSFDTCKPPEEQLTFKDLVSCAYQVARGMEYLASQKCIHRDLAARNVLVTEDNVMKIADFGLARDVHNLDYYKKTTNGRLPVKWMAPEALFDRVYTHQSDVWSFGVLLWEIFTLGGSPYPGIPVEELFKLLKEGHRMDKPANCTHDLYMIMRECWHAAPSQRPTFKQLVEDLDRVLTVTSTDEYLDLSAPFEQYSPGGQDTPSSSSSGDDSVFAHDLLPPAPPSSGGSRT
# Molecular target: FGFR3 enzyme (Homo sapiens (Human), UniProt P22607)
# Test: FGFR Enzymatic Assay (peptide phosphorylation, FRET), FGFR3
# Assay type: biochemical
# Conditions: IC50 ratio showing FGFR3 selectivity; pre-incubated for 4 hours
# Method: The inhibitor potency of the exemplified compounds was measured in an enzyme assay that measures peptide phosphorylation using FRET measurements to detect product formation. Inhibitors were serially diluted in DMSO and a volume of 0.5 μL was transferred to the wells of a 384-well plate.
# GraphPad prism3 was used to analyze the data.
compound,measurement,value
"CCN1C(=O)N(c2cc(OC)cc(C(=O)NC)c2F)Cc2cnc(-c3ccc(C4(C#N)CCC4)nc3)cc21 [Example 28, 3-(7-(6-(1-cyanocyclobutyl)pyridin-3-yl)-1-ethyl-2-oxo-1,2-dihydropyrido[4,3-d]pyrimidin-3(4H)-yl)-2-fluoro-5-methoxy-N-methylbenzamide]",FGFR1/FGFR3,>10
same,FGFR4/FGFR3,>25
